The chains behind the UniProt entries cited, without tags or fusion partners.
UniProt Q62986, whole entry: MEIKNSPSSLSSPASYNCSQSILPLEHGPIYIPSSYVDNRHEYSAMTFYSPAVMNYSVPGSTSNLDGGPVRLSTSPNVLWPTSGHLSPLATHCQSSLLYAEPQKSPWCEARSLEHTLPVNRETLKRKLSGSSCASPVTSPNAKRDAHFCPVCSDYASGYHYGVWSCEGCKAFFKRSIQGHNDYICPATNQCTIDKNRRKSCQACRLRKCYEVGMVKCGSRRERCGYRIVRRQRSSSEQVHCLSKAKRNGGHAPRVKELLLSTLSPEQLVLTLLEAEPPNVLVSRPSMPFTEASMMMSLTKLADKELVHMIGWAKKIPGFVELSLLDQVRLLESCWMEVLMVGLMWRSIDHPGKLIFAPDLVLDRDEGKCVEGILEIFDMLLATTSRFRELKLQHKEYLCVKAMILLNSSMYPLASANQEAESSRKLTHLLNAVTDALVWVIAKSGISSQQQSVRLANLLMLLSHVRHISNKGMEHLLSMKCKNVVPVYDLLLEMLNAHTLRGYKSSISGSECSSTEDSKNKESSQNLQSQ

In US6898533B1, “Methods for predicting the biological, chemical, and physical properties of molecules from their spectral properties” (The United States of America as represented by the …, priority 2000, dated 2005):

Tests used:
[1] = tested on: estrogen receptor; experiment: estrogen receptor relative binding affinity, expanded training set of 107 compounds; conditions: input class, 107-compound training set
[2] = target: beta (ERβ) estrogen receptor (Rattus norvegicus, UniProt Q62986); conditions: cited from earlier work

C[C@]12CC[C@@H]3c4cc(O)c(O)cc4CC[C@H]3[C@@H]1CC[C@@H]2O [2-hydroxy-estradiol]
Class [1]: S (strong estrogen receptor binders were defined as having log(RBA)>−0.25) | Log-(RBA) beta [2]: 1.04

C[C@]12CC[C@@H]3c4ccc(O)cc4CC[C@H]3[C@@H]1CC[C@@H]2O [17β-Estradiol]
Log-(RBA) beta [2]: 2.00
